According to patent publication WO2015077660A1, “Enzyme reactor system enabling enhanced enzymatic digestion, analyte solubility and improved mass spectrometric compatibility” (priority 2013, dated 2014):

Tested on: trypsin
Experiment: Insulin digestion in immobilized enzyme reactor, buffer screening (Table 7)
Type: biochemical, porcine
Details: IMER, 70°C, 60 s

## NC(CO)(CO)CO [Tris]
0.05M
  Peptide: 1044238
0.1M
  Peptide: 1053652
0.25M
  Peptide: 986402
